Results on 1 substance are retold here after patent US11576981B2, “Acyl hydrazone linkers, methods and uses thereof” (Ontario Institute for Cancer Research (OICR), priority 2017, dated 2023).

The subject of this assay is SKOV3 ovarian cancer cell line. Briefly: Cytotoxicity against SKOV3 (CellTiter-Glo ATP viability). To be noted: ATP content. It is filed as cell-based. The procedure:
SKOV3 ovarian cells are incubated with the effectors for a period corresponding to 2 to 3 times their estimated doubling time and the amount of viable cells is determine by measuring ATP content in the wells. ATP has been widely accepted as a valid marker of viable cells. When cells lose membrane integrity, they lose the ability to synthesize ATP and endogenous ATPases rapidly deplete any remaining ATP from the cytoplasm. All ADCs are diluted in DPBS to 6× the highest concentration tested, followed by 10 3-fold serial dilutions in DPBS for a total of 11 concentration points. Each point is added to triplicate wells. DPBS is added in wells to measure the maximum growth. Cells are diluted at their appropriate seeding density (ranging from 150 to 1000 cells per well) in complete media supplemented with glutamine 2 mM, serum and antibiotic cocktail. […] Total ATP is measured using CellTiter-Glo reagent from Promega as recommended by the supplier. […] Signal output is measured on a luminescence plate reader (envision, Perkin Elmer) set at an integration time of 0.1 sec. […]
Each concentration point (S) is normalized to the negative control wells (NC) and expressed as % survival (NC−S/NC×100). Potency (IC50) and efficacy are calculated from a non-linear curve fit of the points versus log of the concentrations without constrain on the slope. Refined data are analysed using Prism software. […]
In general terms: ATP-based viability assays read luminescence as a measure of living cells.

As usually defined, the IC50 is the concentration at which inhibition is half-maximal. A lower IC50 goes with greater potency.

Regarding Trastuzumab-SMCC-DM1, half-maximal inhibition (IC50) was put at 0.038 nM. In other words, the picomolar range.
